Experimental data taken from patent EP4675276A1.

By UniProt entry, the sequences of proteins in these tests, tags left out. Residues count along the entry.
UniProt P69905, 2-142, chain 1 of 2: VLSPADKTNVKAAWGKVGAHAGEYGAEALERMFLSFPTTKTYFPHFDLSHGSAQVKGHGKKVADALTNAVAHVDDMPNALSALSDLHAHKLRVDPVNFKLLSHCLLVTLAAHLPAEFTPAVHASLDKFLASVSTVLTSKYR

Key:
human hemoglobin (human) [1] = molecular target: human hemoglobin (human) (UniProt P69905); experiment: extrapolated end point of the titration of 921 pmol/mL Hb (straight-line fit of Table 6A)
human hemoglobin (human) [2] = molecular target: human hemoglobin (human) (UniProt P69905); experiment: OC-Hemodia Auto III immunoassay, Hb 6.2 pmol/mL, Hpt 1.55 pmol/mL (0.25 Unit), no stool, initial value
human hemoglobin (human) [3] = molecular target: human hemoglobin (human) (UniProt P69905); experiment: OC-Hemodia Auto III immunoassay, Hb 6.2 pmol/mL, Hpt 6.2 pmol/mL (1 Unit), no stool, initial value
human hemoglobin (human) [4] = molecular target: human hemoglobin (human) (UniProt P69905); experiment: OC-Hemodia Auto III immunoassay, Hb 6.2 pmol/mL, Hpt 0.775 pmol/mL (0.125 Unit), no stool, initial value
human hemoglobin (human) [5] = molecular target: human hemoglobin (human) (UniProt P69905); experiment: 59.4 µg/mL (921 pmol/mL) Hb + Hpt original solution at 0.250 % (vol/vol); free Hb by latex reagent No.16 + No.11
human hemoglobin (human) [6] = molecular target: human hemoglobin (human) (UniProt P69905); experiment: 59.4 µg/mL (921 pmol/mL) Hb + Hpt original solution at 0.500 % (vol/vol); free Hb by latex reagent No.16 + No.11
human hemoglobin (human) [7] = molecular target: human hemoglobin (human) (UniProt P69905); experiment: 59.4 µg/mL (921 pmol/mL) Hb + Hpt original solution at 0.063 % (vol/vol); free Hb by latex reagent No.16 + No.11
human hemoglobin (human) [8] = molecular target: human hemoglobin (human) (UniProt P69905); experiment: OC-Hemodia Auto III immunoassay, Hb 9.3 pmol/mL, Hpt 2.325 pmol/mL (0.25 Unit), 0.5% feces, initial value
human hemoglobin (human) [9] = molecular target: human hemoglobin (human) (UniProt P69905); experiment: OC-Hemodia Auto III immunoassay, Hb 9.3 pmol/mL, Hpt 9.3 pmol/mL (1 Unit), 0.5% feces, initial value
human hemoglobin (human) [10] = molecular target: human hemoglobin (human) (UniProt P69905); experiment: cell-based or functional assay
human hemoglobin (human) [11] = molecular target: human hemoglobin (human) (UniProt P69905); experiment: OC-Hemodia Auto III immunoassay, Hb 6.2 pmol/mL, Hpt 3.1 pmol/mL (0.5 Unit), no stool, initial value
human hemoglobin (human) [12] = molecular target: human hemoglobin (human) (UniProt P69905); experiment: OC-Hemodia Auto III immunoassay, Hb 9.3 pmol/mL, Hpt 4.65 pmol/mL (0.5 Unit), 0.5% feces, initial value
human hemoglobin (human) [13] = molecular target: human hemoglobin (human) (UniProt P69905); experiment: 59.4 µg/mL (921 pmol/mL) Hb + Hpt original solution at 1.000 % (vol/vol); free Hb by latex reagent No.16 + No.11
human hemoglobin (human) [14] = molecular target: human hemoglobin (human) (UniProt P69905); experiment: 59.4 µg/mL (921 pmol/mL) Hb + Hpt original solution at 0.125 % (vol/vol); free Hb by latex reagent No.16 + No.11

Equine Hpt (without enzyme treatment)
Amount of Hpt original solution when free-Hb concentration became 0 (human hemoglobin (human) [1]): 3.62 % (vol/vol)
Ratio to no Hpt addition (%) (human hemoglobin (human) [2]): 90%
Ratio to no Hpt addition (%) (human hemoglobin (human) [3]): 50%
Ratio to no Hpt addition (%) (human hemoglobin (human) [4]): 94%
free-Hb concentration remaining (human hemoglobin (human) [5]): 54.6 µg/mL
free-Hb concentration remaining (human hemoglobin (human) [6]): 51 µg/mL
free-Hb concentration remaining (human hemoglobin (human) [7]): 58.2 µg/mL
Ratio to no Hpt addition (%) (human hemoglobin (human) [8]): 93%
Ratio to no Hpt addition (%) (human hemoglobin (human) [9]): 67%
Residual Hb ratio (%), 37°C 7 days, Hpt 0.775 pmol/mL (0.125 Unit), no stool (human hemoglobin (human) [10]): 46%
Residual Hb ratio (%), 37°C 7 days, Hpt 1.55 pmol/mL (0.25 Unit), no stool (human hemoglobin (human) [10]): 48%
Residual Hb ratio (%), 37°C 7 days, Hpt 2.325 pmol/mL (0.25 Unit), 0.5% feces (human hemoglobin (human) [10]): 21%
Residual Hb ratio (%), 37°C 7 days, Hpt 3.1 pmol/mL (0.5 Unit), no stool (human hemoglobin (human) [10]): 63%
Residual Hb ratio (%), 37°C 7 days, Hpt 4.65 pmol/mL (0.5 Unit), 0.5% feces (human hemoglobin (human) [10]): 39%
Residual Hb ratio (%), 37°C 7 days, Hpt 6.2 pmol/mL (1 Unit), no stool (human hemoglobin (human) [10]): 102%
Residual Hb ratio (%), 37°C 7 days, Hpt 9.3 pmol/mL (1 Unit), 0.5% feces (human hemoglobin (human) [10]): 93%
Residual Hb ratio (%), 37°C 14 days, Hpt 0.775 pmol/mL (0.125 Unit), no stool (human hemoglobin (human) [10]): 18%
Residual Hb ratio (%), 37°C 14 days, Hpt 1.55 pmol/mL (0.25 Unit), no stool (human hemoglobin (human) [10]): 28%
Residual Hb ratio (%), 37°C 14 days, Hpt 2.325 pmol/mL (0.25 Unit), 0.5% feces (human hemoglobin (human) [10]): 18%
Residual Hb ratio (%), 37°C 14 days, Hpt 3.1 pmol/mL (0.5 Unit), no stool (human hemoglobin (human) [10]): 57%
Residual Hb ratio (%), 37°C 14 days, Hpt 4.65 pmol/mL (0.5 Unit), 0.5% feces (human hemoglobin (human) [10]): 38%
Residual Hb ratio (%), 37°C 14 days, Hpt 6.2 pmol/mL (1 Unit), no stool (human hemoglobin (human) [10]): 100%
Residual Hb ratio (%), 37°C 14 days, Hpt 9.3 pmol/mL (1 Unit), 0.5% feces (human hemoglobin (human) [10]): 95%
residual Hb ratio, 1 Unit of Hpt, 37°C 7 days, no stool (human hemoglobin (human) [10]): > 70%
Ratio to no Hpt addition (%) (human hemoglobin (human) [11]): 74%
Ratio to no Hpt addition (%) (human hemoglobin (human) [12]): 85%
free-Hb concentration remaining (human hemoglobin (human) [13]): 43.2 µg/mL
free-Hb concentration remaining (human hemoglobin (human) [14]): 58.3 µg/mL

Equine dHpt (ENGase)
Amount of Hpt original solution when free-Hb concentration became 0 (human hemoglobin (human) [1]): 1.35 % (vol/vol)
Ratio to no Hpt addition (%) (human hemoglobin (human) [2]): 101%
Ratio to no Hpt addition (%) (human hemoglobin (human) [3]): 93%
Ratio to no Hpt addition (%) (human hemoglobin (human) [4]): 101%
free-Hb concentration remaining (human hemoglobin (human) [5]): 45.3 µg/mL
free-Hb concentration remaining (human hemoglobin (human) [6]): 34.7 µg/mL
free-Hb concentration remaining (human hemoglobin (human) [7]): 55.4 µg/mL
Ratio to no Hpt addition (%) (human hemoglobin (human) [8]): 100%
Ratio to no Hpt addition (%) (human hemoglobin (human) [9]): 96%
Residual Hb ratio (%), 37°C 7 days, Hpt 0.775 pmol/mL (0.125 Unit), no stool (human hemoglobin (human) [10]): 47%
Residual Hb ratio (%), 37°C 7 days, Hpt 1.55 pmol/mL (0.25 Unit), no stool (human hemoglobin (human) [10]): 52%
Residual Hb ratio (%), 37°C 7 days, Hpt 2.325 pmol/mL (0.25 Unit), 0.5% feces (human hemoglobin (human) [10]): 22%
Residual Hb ratio (%), 37°C 7 days, Hpt 3.1 pmol/mL (0.5 Unit), no stool (human hemoglobin (human) [10]): 51%
Residual Hb ratio (%), 37°C 7 days, Hpt 4.65 pmol/mL (0.5 Unit), 0.5% feces (human hemoglobin (human) [10]): 36%
Residual Hb ratio (%), 37°C 7 days, Hpt 6.2 pmol/mL (1 Unit), no stool (human hemoglobin (human) [10]): 97%
Residual Hb ratio (%), 37°C 7 days, Hpt 9.3 pmol/mL (1 Unit), 0.5% feces (human hemoglobin (human) [10]): 74%
Residual Hb ratio (%), 37°C 14 days, Hpt 0.775 pmol/mL (0.125 Unit), no stool (human hemoglobin (human) [10]): 25%
Residual Hb ratio (%), 37°C 14 days, Hpt 1.55 pmol/mL (0.25 Unit), no stool (human hemoglobin (human) [10]): 34%
Residual Hb ratio (%), 37°C 14 days, Hpt 2.325 pmol/mL (0.25 Unit), 0.5% feces (human hemoglobin (human) [10]): 19%
Residual Hb ratio (%), 37°C 14 days, Hpt 3.1 pmol/mL (0.5 Unit), no stool (human hemoglobin (human) [10]): 34%
Residual Hb ratio (%), 37°C 14 days, Hpt 4.65 pmol/mL (0.5 Unit), 0.5% feces (human hemoglobin (human) [10]): 34%
Residual Hb ratio (%), 37°C 14 days, Hpt 6.2 pmol/mL (1 Unit), no stool (human hemoglobin (human) [10]): 99%
Residual Hb ratio (%), 37°C 14 days, Hpt 9.3 pmol/mL (1 Unit), 0.5% feces (human hemoglobin (human) [10]): 73%
residual Hb ratio, 1 Unit of Hpt, 37°C 7 days, no stool (human hemoglobin (human) [10]): > 70%
Ratio to no Hpt addition (%) (human hemoglobin (human) [11]): 106%
Ratio to no Hpt addition (%) (human hemoglobin (human) [12]): 101%
free-Hb concentration remaining (human hemoglobin (human) [13]): 15.6 µg/mL
free-Hb concentration remaining (human hemoglobin (human) [14]): 51.8 µg/mL
